B1: Proteasomal ubiquitin receptor ADRM1 (Homo sapiens), Q16186 (parent)
chain: MTTSGALFPSLVPGSRGASNKYLVEFRAGKMSLKGTTVTPDKRKGLVYIQQTDDSLIHFCWKDRTSGNVEDDLIIFPDDCEFKRVPQCPSGRVYVLKFKAGSKRLFFWMQEPKTDQDEEHCRKVNEYLNNPPMPGALGASGSSGHELSALGGEGGLQSLLGNMSHSQLMQLIGPAGLGGLGGLGALTGPGLASLLGSSGPPGSSSSSSSRSQSAAVTPSSTTSSTRATPAPSAPAAASATSPSPAPSSGNGASTAASPTQPIQLSDLQSILATMNVPAGPAGGQQVDLASVLTPEIMAPILANADVQERLLPYLPSGESLPQTADEIQNTLTSPQFQQALGMFSAALASGQLGPLMCQFGLPAEAVEAANKGDVEAFAKAMQNNAKPEQKEGDTKDKKDEEEDMSLD

Experiments:
[1] = variants of: B1; settings: with psmd1_human PSMD1, Q99460
[2] = variants of: B1; settings: with psmd1_human PSMD1, Q99460; remark: listed apart in the source

Row | Variant | effect of a mutation on the interaction [1] | effect of a mutation on the interaction [2]
1 | MTTSGALFPSLVPGSRGASNKYLVEFRAGKMSLKGTTVTPDKRKGLVYIQQTDDSLIHFCWKDRTSGNVEDDLIIFPDDCEFKRVPQCPSGRVYVLKFKAGSKALFFWMQEPKTDQDEEHCRKVNEYLNNPPMPGALGASGSSGHELSALGGEGGLQSLLGNMSHSQLMQLIGPAGLGGLGGLGALTGPGLASLLGSSGPPGSSSSSSSRSQSAAVTPSSTTSSTRATPAPSAPAAASATSPSPAPSSGNGASTAASPTQPIQLSDLQSILATMNVPAGPAGGQQVDLASVLTPEIMAPILANADVQERLLPYLPSGESLPQTADEIQNTLTSPQFQQALGMFSAALASGQLGPLMCQFGLPAEAVEAANKGDVEAFAKAMQNNAKPEQKEGDTKDKKDEEEDMSLD [R104A] | decreasing interaction strength | –
2 | MTTSGALFPSLVPGSRGASNKYLVEFRAGKMSLKGTTVTPDKRKGLVYIQQTDDSLIHFCWKDRTSGNVEDDLIIFPDDCEFKRVPQCPSGRVYVLKFKAGSKDLFFWMQEPKTDQDEEHCRKVNEYLNNPPMPGALGASGSSGHELSALGGEGGLQSLLGNMSHSQLMQLIGPAGLGGLGGLGALTGPGLASLLGSSGPPGSSSSSSSRSQSAAVTPSSTTSSTRATPAPSAPAAASATSPSPAPSSGNGASTAASPTQPIQLSDLQSILATMNVPAGPAGGQQVDLASVLTPEIMAPILANADVQERLLPYLPSGESLPQTADEIQNTLTSPQFQQALGMFSAALASGQLGPLMCQFGLPAEAVEAANKGDVEAFAKAMQNNAKPEQKEGDTKDKKDEEEDMSLD [R104D] | disrupting interaction strength | decreasing interaction strength
3 | MTTSGALFPSLVPGSRGASNKYLVEFRAGKMSLKGTTVTPDKRKGLVYIQQTDDSLIHFCWKDRTSGNVEDDLIIFPDDCEFKRVPQCPSGRVYVLKFKAGSKELFFWMQEPKTDQDEEHCRKVNEYLNNPPMPGALGASGSSGHELSALGGEGGLQSLLGNMSHSQLMQLIGPAGLGGLGGLGALTGPGLASLLGSSGPPGSSSSSSSRSQSAAVTPSSTTSSTRATPAPSAPAAASATSPSPAPSSGNGASTAASPTQPIQLSDLQSILATMNVPAGPAGGQQVDLASVLTPEIMAPILANADVQERLLPYLPSGESLPQTADEIQNTLTSPQFQQALGMFSAALASGQLGPLMCQFGLPAEAVEAANKGDVEAFAKAMQNNAKPEQKEGDTKDKKDEEEDMSLD [R104E] | disrupting interaction strength | decreasing interaction strength
